# Source: PubChem (Broad Institute)
# UUG fidelity: alters start codon recognition fidelity in yeast | S. cerevisiae UUG-firefly luciferase reporter, luminescence/redox ratio | activity score, % at 18.7 µM | 350,000 compounds, 0.13% hits | AID 602363;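 active = replicate mean at a twofold rise or more, about +100% in these data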;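 note: firefly luciferase made from a UUG start codon reports start codon fidelity; reporter light over untreated wells divided by growth signal over untreated wells; some hits fall short of that in this replicate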
# miR122 inh: inhibitors of miR-122 in Huh7 cells; Huh7 miR-122 Renilla luciferase sensor, 48 h; neutral wells = 0, positive control = 100; actives 0.3% (n = 340,000); activation (reporter increase), % at 12.5 µM;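 active = mean replicate activation score at least 90 and every replicate individually at or above 90; inconclusive = only one of the two criteria met; inactive = neither criterion met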;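 also: higher luciferase means less miR-122 activity so hits act as miR-122 inhibitors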
# esBAF inh: blocks esBAF chromatin remodeling in mouse ES cells; AID 602393; Bmi1-luciferase knock-in reporter, 24 h; 100% = twice the neutral-well signal; actives 2% (n = 350,000); reporter increase, % at 12.5 µM; in the data active = activation above about 40%; inconclusive = no clear call, values can overlap the other calls;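 also: 0% = median of the plate's neutral control wells and 100% = double that signal; a rise in the Bmi1 reporter signal indicates esBAF inhibition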
# PglD DTNB: blocks C. jejuni PglD acetyltransferase activity. inhibition, % at 12.5 µM. purified PglD enzyme, DTNB colorimetric CoA detection. actives 0.098% (n = 360,000). AID 602405; in the data active = inhibition above about 16%, passing the limit was not always enough; inconclusive = no clear call, values can overlap the other calls
# Wnt bcat act: activates Wnt/beta-catenin signaling in a reporter cell assay; activator, plate reader; activation, % at 9.35 µM; actives 1.2% (n = 300,000); in the data active = activation above about 30%, passing the limit was not always enough; inconclusive = no clear call, values can overlap the other calls;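 also: 0% = neutral control wells and 100% = positive control wells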
# MITF act: activators of MITF-driven TRPM1 promoter activity in SK-MEL-5 cells; actives 0.75% (n = 300,000); AID 588334; SK-MEL-5 TRPM1-promoter luciferase, 24 h; % of positive control, neutral wells = 0; activation, % at 12.5 µM;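 active = mean activation of at least 80% with every replicate also reaching 80%; inconclusive = mean reaches 80% but some replicate falls short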;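 also: 0% = neutral control wells and 100% = parthenolide positive control wells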
# Active calls of the source: *; ? = inconclusive; . = no result given; [ ] = dose if it differs, or a comment. Rows were chosen to be rich in hits. Some 2.8% of all compounds tested hit in one or more screens of this group.
No. | compound | UUG fidelity | miR122 inh | esBAF inh
1 | CCOc1ccc(NC(=O)c2ccc(F)cc2F)cc1 | -19 | -5 | 24
2 | CNC[C@H]1Oc2cc(C#CC3CCCCC3)ccc2S(=O)(=O)N([C@@H](C)CO)C[C@H]1C | 9 | 11[16.7 µM] | -7
3 | COc1ccc(NC(=O)N(C)C[C@H]2Oc3ncc(-c4cccnc4)cc3C(=O)N([C@@H](C)CO)C[C@H]2C)cc1 | -20 | 9[16.7 µM] | 1
4 | COc1ccc(NC(=O)c2cc(F)c(F)cc2Cl)cc1Cl | -9 | -6 | 52*
5 | COc1ccc(C(=O)Nc2ccc3c(c2)OCCO3)c(OC)c1 | -20 | -6 | 0
6 | COc1ccc(C(=O)OCC(=O)Nc2ccc3c(c2)OCCO3)c(OC)c1 | -3 | -14 | -1
7 | COc1ccc(NC(=O)c2ccc3c(c2)OCO3)cc1Cl | -1 | -4 | .
8 | COc1cc(C(=O)Nc2ccc3c(c2)OCCO3)ccc1OC(F)F | -13 | -8 | 70*

No. | PglD DTNB | Wnt bcat act | MITF act
1 | 7 | 41* | 93*
2 | 2 | . | .
3 | 2 | . | .
4 | 1 | 20 | 56
5 | 2 | 55* | .
6 | -5 | -5 | 3
7 | -1 | . | 88*
8 | 3 | 0 | 98*

# Carrying on.
No. | compound | UUG fidelity | miR122 inh | esBAF inh
9 | O=C(Nc1ccc(F)c(Cl)c1)c1ccccc1 | -29 | -2 | 70*
10 | O=C(Nc1ccc(F)c(Cl)c1)c1ccc2c(c1)OCO2 | -22 | . | 55*
11 | Cc1noc(C(=O)Nc2ccc(F)c(Cl)c2)c1Cl | -20 | . | 49*
12 | COc1ccc(C(=O)O)c(OC)n1 | -5 | -5 | -5
13 | O=C(Nc1ccc(F)c(Cl)c1)c1cccnc1 | -5 | 23 | 10
14 | COc1ccc(C(=O)Nc2ccc(Cl)c(Cl)c2)c(OC)n1 | -14 | 10 | 66*
15 | C[C@H](CO)N1C[C@H](C)[C@@H](CN(C)C(=O)Nc2cccc3ccccc23)Oc2ccc(NS(=O)(=O)c3cn(C)cn3)cc2CC1=O | -13 | -4[16.7 µM] | 1
16 | COc1ccc(S(=O)(=O)N(C)C[C@H]2OCCCC[C@@H](C)Oc3ccc(NC(=O)CCC(F)(F)F)cc3C(=O)N([C@@H](C)CO)C[C@@H]2C)cc1 | 7 | -2[16.7 µM] | -2

No. | PglD DTNB | Wnt bcat act | MITF act
9 | 6 | ? | 72
10 | 3 | 0 | .
11 | -4 | 7 | 25
12 | 4 | -2 | -4
13 | 0 | -1 | .
14 | 15 | 16 | 46
15 | -2 | . | .
16 | -1 | . | .

# Following part
No. | compound | UUG fidelity | miR122 inh | esBAF inh
17 | O=C(Nc1ccccc1)Nc1ccc2c(c1)[C@@H]1C[C@H](CC(=O)N3CCCCC3)O[C@H](CO)[C@@H]1O2 | 13 | 1[16.7 µM] | 4
18 | CCn1cc(Br)c(C(=O)Nc2ccc(F)c(Cl)c2)n1 | 19 | 4 | 58*
19 | CCn1cc(Br)c(C(=O)Nc2ccc(Cl)cc2Cl)n1 | -9 | 10 | 26
20 | Oc1oc(-c2ccccc2)nc1C=Nc1ccccc1 | . | . | .
21 | CSc1ccccc1N=Cc1nc(-c2ccccc2)oc1O | -17 | 1 | 52*
22 | Oc1oc(-c2ccccc2)nc1C=NCc1ccccc1 | 12 | 12 | 56*
23 | CC(C)c1ccc(/C=C/C(=O)CCC(=O)O)cc1 | . | 213* | -13
24 | COc1ccccc1Nc1ncc(-c2cccs2)s1 | -12 | 0 | 54*

No. | PglD DTNB | Wnt bcat act | MITF act
17 | 0 | . | .
18 | 3 | 21 | .
19 | 3 | . | .
20 | . | 13 | 68
21 | 7 | . | 15
22 | 3 | 16 | 103*
23 | . | -1 | -6
24 | 6 | . | 72

# More structures.
No. | compound | UUG fidelity | miR122 inh | esBAF inh
25 | COc1ccccc1Nc1ccc(C(=O)NCc2cccs2)cn1 | -13 | -3 | -3
26 | CN1CCN(C(=O)C[C@H]2CC[C@H]3[C@@H](COC[C@@H](O)CN3S(=O)(=O)c3cccc(F)c3)O2)CC1 | 16 | 23[16.7 µM] | -6
27 | O=Cc1c(-c2ccc(Cl)cc2)oc2ccc(O)cc12 | -29 | -1 | ?
28 | CC1=CC2=NC(=O)/C(=C\c3cccn3CCOc3ccccc3C)C(=N)N2O1 | -20 | 147* | 0
29 | COc1ccccc1OCCOc1ccc(/C=C2/C(=N)N3OC(C)=CC3=NC2=O)cc1OC | -16 | -4 | 0
30 | CCC(=O)Nc1cccc(-c2nc3ccccc3o2)c1 | -8 | -12 | 60*
31 | O=C(/C=C/c1ccco1)NC(=S)Nc1cccc(-c2nc3ccccc3o2)c1 | . | 130* | .
32 | CC(=O)Nc1ccc(S(=O)(=O)Nc2cccc(-c3nc4ccccc4o3)c2)cc1 | 3 | 138* | -3

No. | PglD DTNB | Wnt bcat act | MITF act
25 | 8 | 0 | 9
26 | -1 | . | .
27 | 1 | 84* | .
28 | -4 | -1 | 22
29 | 0 | . | .
30 | -5 | 17 | 16
31 | . | . | 3
32 | 2 | . | .

# Three of the entries above in order of the UUG fidelity value, low to high:
No. | compound | UUG fidelity | miR122 inh | esBAF inh
10 | O=C(Nc1ccc(F)c(Cl)c1)c1ccc2c(c1)OCO2 | -22 | . | 55*
1 | CCOc1ccc(NC(=O)c2ccc(F)cc2F)cc1 | -19 | -5 | 24
18 | CCn1cc(Br)c(C(=O)Nc2ccc(F)c(Cl)c2)n1 | 19 | 4 | 58*

No. | PglD DTNB | Wnt bcat act | MITF act
10 | 3 | 0 | .
1 | 7 | 41* | 93*
18 | 3 | 21 | .

# Next part.
No. | compound | UUG fidelity | miR122 inh | esBAF inh
33 | O=C(CSc1nc2ccccc2o1)Nc1nc2ccccc2s1 | -9 | -10 | 34
34 | CC(=O)Nc1nc2ccc(-c3nc4ccccc4o3)cc2s1 | -35 | 0 | .
35 | O=C(Cc1cccs1)Nc1cccc(-c2nc3ccccc3o2)c1 | -17 | 9 | 7
36 | Cc1ccc(-c2nc3ccccc3o2)cc1NC(=S)NC(=O)/C=C/c1ccco1 | -11 | 1 | 16
37 | COCC#Cc1ccc2c(c1)O[C@@H](CN(C)C(=O)CN(C)C)[C@@H](C)CN([C@@H](C)CO)S2(=O)=O | -6 | -2[16.7 µM] | 1
38 | Cc1ccc(S(=O)(=O)N(C)C[C@H]2Oc3ccc(NC(=O)Nc4cccc5ccccc45)cc3CC(=O)N([C@@H](C)CO)C[C@H]2C)cc1 | -3 | 4[16.7 µM] | -3
39 | Cc1noc(C)c1NC(=O)Nc1ccc2c(c1)C(=O)N(C)[C@@H]1CC[C@H](CC(=O)NCc3ccc(Cl)cc3)O[C@@H]1CO2 | . | . | 0
40 | O=C(/C=C/c1ccco1)NC(=S)Nc1ccc(N2CCOCC2)c(Cl)c1 | -6 | 104* | -10

No. | PglD DTNB | Wnt bcat act | MITF act
33 | 2 | . | .
34 | -15 | 79* | 18
35 | 0 | 0 | 10
36 | 3 | 3 | -9
37 | -3 | . | .
38 | 3 | . | .
39 | 2 | . | .
40 | 1 | . | -28

# (next part)
No. | compound | UUG fidelity | miR122 inh | esBAF inh
41 | Cc1ccc(S(=O)(=O)Nc2ccc3c(c2)C(=O)N([C@@H](C)CO)C[C@H](C)[C@@H](CN(C)C(=O)NC(C)C)O3)cc1 | 5 | 4[16.7 µM] | 0
42 | COc1ncnc2c1cnn2-c1ccccc1 | -5 | 1 | 36
43 | COc1ccccc1Oc1ncnc2c1cnn2-c1ccccc1 | -10 | -3 | 73*
44 | CCN(c1ccccc1)c1ncnc2c1cnn2-c1ccccc1 | -2 | 1 | 76*
45 | CN(Cc1ccccc1)c1ncnc2c1cnn2-c1ccccc1 | -17 | -5 | 40
46 | COCCN(CCOC)c1ncnc2c1cnn2-c1ccccc1 | -9 | 3 | 38
47 | CN1C(=O)c2cc(NC(=O)c3ccc(F)cc3)ccc2OC[C@@H]2O[C@H](CC(=O)O)CC[C@@H]21 | -2 | 1[16.7 µM] | -1
48 | C[C@H]1CCCCO[C@@H](CN(C)Cc2ccncc2)[C@@H](C)CN([C@@H](C)CO)C(=O)c2cc(NC(=O)C3CCCCC3)ccc2O1 | 7 | -5[16.7 µM] | 0
49 | CC1(C)CC(=O)c2sc(N3CCCCC3)nc2C1 | . | -6 | 51*
50 | CS(=O)(=O)N(CC(=O)Nc1cccc([N+](=O)[O-])c1)c1ccccc1 | . | . | .
51 | CS(=O)(=O)N(CC(=O)Nc1cccc(F)c1)c1cccc([N+](=O)[O-])c1 | -23 | 277* | 2

No. | PglD DTNB | Wnt bcat act | MITF act
41 | 0 | . | .
42 | 1 | 11 | .
43 | -23 | 10 | 91*
44 | -2 | 10 | .
45 | 1 | 26 | 85*
46 | 0 | 7 | 25
47 | 0 | . | .
48 | 6 | . | .
49 | . | . | 50
50 | . | -1 | -3
51 | . | 4 | .
